Activation (fluorescence interference) data for two molecules are collected here from PubChem BioAssay AID602387 (Sanford-Burnham Center for Chemical Genomics, 2012).

Only a part is listed here, and it is no random draw. Calls of active or inactive are those of the source.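 Rule for the calls: active = activation of at least 30% at 10 µM; inactive = the rest.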

This assay can be described thus: beacon detection-step fluorescence artefacts – biochemical, fluorescent molecular beacon, single concentration, artefact control for DNMT1 inhibitor project, confirmation (AID 602387).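 Note: DNMT1 catalytic domain with a HinP1I cleavage step and a FAM/dabcyl DNA beacon.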 As to conditions: DNMT1 molecular beacon spectral interference counterscreen, fluorescence 485/520; at 10 µM; hits give high values. For orientation: Counterscreens check selectivity or assay interference.
For the molecule `Nc1cccc2c([As](=O)(O)O)cccc12`, the activation (fluorescence interference) is inactive: -2.14%.

As for `Nc1cccc2ccc([As](=O)(O)O)cc12`, the activation (fluorescence interference) is inactive: 0.84%.
